Assay results published in the NIST ThermoML archive (doi:10.1016/j.jct.2016.03.011).
Numbers after ± are expanded uncertainties.

Experiments:
[1] = Molar enthalpy of transition or fusion; conditions: Crystal; DSC
[2] = Crystal; DTA

N=C(Nc1ccccc1)Nc1ccccc1 [1,3-diphenylguanidine]
Molar enthalpy of transition or fusion [1]: 5.38 ± 0.222 kcal/mol
Normal melting temperature [2]: 148.00 ± 1.1 °C
